Test results published in patent US7879817B2, “Hyaluronic acid derivative and drug containing the same” (priority 2004, dated 2011).
Where two headings read alike, the source gives them in different places.

Tests used:
[1] = Sustained release property in the rabbit knee joint (residual ratio in synovial fluid and synovium); conditions: intra-articular
[2] = Filter pass through test; assay type: physicochemical; design: key: A: 2 ml or more was passed; B: less than 2 ml was passed; C: none passed
Protocol: PBS in which each substance to be tested was dissolved to a concentration of 1.0% by weight was prepared. At a temperature of 24° C. under pressure of 5.0 kg/cm^2, each solution of the substances to be tested prepared in the following examples was passed through a 0.45 μm porous filter (25 mm in diameter), and the passed amount (ml) per 1 minute was measured A case in which 2 ml or more was passed is shown by “A”, and a case in which less than 2 ml was passed by “B”, and a case in which none passed by “C”.

[3] = Appearance of the 1.0% by weight solution in PBS; assay type: physicochemical
[4] = 1.0% by weight in PBS, 0.45 μm porous filter (25 mm in diameter), 24° C., 5.0 kg/cm^2
[5] = dissolved in PBS to 1.0% by weight

1% Aminopropanol-ketoprofen-Introduced Sodium Hyaluronate Solution [KP-HA]
persistence of KP in the synovium [1]: KP was persistently maintained also in the synovium
presence of KP in synovial fluid and synovium ([1]; after 4 days): the presence of KP was confirmed in both of the synovial fluid and synovium even after 4 days

2-amino-1,5-pentanediol-ketoprofen-Introduced Hyaluronic Acid [Example 28]
filter pass through test (passed amount per 1 minute) [2, 4]: A (2 ml or more was passed)
appearance of the solution [3, 5]: colorless and transparent liquid

3-amino-1,2-propanediol-ketoprofen-introduced Hyaluronic Acid [Example 30]
filter pass through test (passed amount per 1 minute) [2, 4]: A (2 ml or more was passed)
appearance of the solution [3, 5]: colorless and transparent liquid

Aminopropanol-fenbufen-Introduced Hyaluronic Acid [Example 15]
appearance of the solution [3, 5]: colorless and transparent liquid

Aminopropanol-ibuprofen-Introduced Sodium Hyaluronate [Example 7]
appearance of the solution [3, 5]: colorless and transparent liquid

Aminopropanol-ketoprofen-Introduced Sodium Hyaluronate [Example 2]
filter pass through test (passed amount per 1 minute) [2]: A (key: A: 2 ml or more was passed; B: less than 2 ml was passed; C: none passed)
appearance of the solution [3, 5]: colorless and transparent liquid

Aminopropanol-ketoprofen-Introduced Sodium Hyaluronate [Example 3]
filter pass through test (passed amount per 1 minute) [2]: A (key: A: 2 ml or more was passed; B: less than 2 ml was passed; C: none passed)
appearance of the solution [3]: colorless and transparent liquid

Aminopropanol-ketoprofen-Introduced Sodium Hyaluronate [Example 24]
filter pass through test (passed amount per 1 minute) [2]: C

Aminopropanol-naproxen-Introduced Sodium Hyaluronate [Example 5]
filter pass through test (passed amount per 1 minute) [2, 4]: A (2 ml or more was passed)
appearance of the solution [3, 5]: colorless and transparent liquid

Glycine-tris(hydroxymethyl)aminomethane-ketoprofen-Introduced Hyaluronic Acid [Example 33]
filter pass through test (passed amount per 1 minute) [2]: A (key: A: 2 ml or more was passed; B: less than 2 ml was passed; C: none passed)
appearance of the solution [3]: colorless and transparent liquid

Serinol-ketoprofen-Introduced Hyaluronic Acid [Example 26]
filter pass through test (passed amount per 1 minute) [2]: A (key: A: 2 ml or more was passed; B: less than 2 ml was passed; C: none passed)
appearance of the solution [3, 5]: colorless and transparent liquid
